Consider two compounds from article PMC5818551, “Sequences Flanking the Gephyrin-Binding Site of GlyRβ Tune Receptor Stabilization at Synapses” (eNeuro, 2018).

For one test, the target named is T1, full-length gephyrin (Rattus norvegicus, UniProt Q03555).
T1 construct: performed with recombinant full-length gephyrin rC4 or GephE, cloned into pQE80 vector; His-tag (inferred from pQE80 vector and Ni-NTA purification); made in house; host or cells: E. coli BL21
T1 sequence (Q03555 1-755 isoform Q03555-4): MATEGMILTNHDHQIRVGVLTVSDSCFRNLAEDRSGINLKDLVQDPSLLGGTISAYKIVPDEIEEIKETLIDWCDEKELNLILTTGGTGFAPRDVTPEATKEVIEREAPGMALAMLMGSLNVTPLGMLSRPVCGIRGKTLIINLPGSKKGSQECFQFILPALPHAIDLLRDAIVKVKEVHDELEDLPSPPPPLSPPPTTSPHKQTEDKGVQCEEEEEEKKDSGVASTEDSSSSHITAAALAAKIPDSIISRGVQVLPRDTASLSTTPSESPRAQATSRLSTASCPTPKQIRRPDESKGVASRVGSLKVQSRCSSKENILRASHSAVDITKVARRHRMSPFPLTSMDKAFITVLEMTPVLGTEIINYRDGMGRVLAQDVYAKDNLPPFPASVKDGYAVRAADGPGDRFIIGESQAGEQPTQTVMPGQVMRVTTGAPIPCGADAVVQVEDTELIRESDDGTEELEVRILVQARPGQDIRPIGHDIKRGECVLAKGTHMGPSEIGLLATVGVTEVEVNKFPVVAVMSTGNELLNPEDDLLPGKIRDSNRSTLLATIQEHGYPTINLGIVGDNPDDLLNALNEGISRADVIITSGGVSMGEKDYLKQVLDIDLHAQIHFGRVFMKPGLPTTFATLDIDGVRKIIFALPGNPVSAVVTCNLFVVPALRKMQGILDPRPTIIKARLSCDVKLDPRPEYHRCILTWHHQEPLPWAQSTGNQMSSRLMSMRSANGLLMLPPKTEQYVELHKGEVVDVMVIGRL
The test can be described thus: ITC of GlyR β-loop variants with full-length gephyrin. It counts as binding.

The mark [1] stands for this setting: mean ± SEM, three or more independent measurements, SEM.

Regarding `CC[C@H](C)[C@H](NC(=O)[C@H](CO)NC(=O)[C@H](Cc1ccccc1)NC(=O)[C@H](CC(=O)O)NC(=O)[C@H](CC(N)=O)NC(=O)[C@H](CO)NC(=O)[C@H](CCCNC(=N)N)NC(=O)[C@H](CC(C)C)NC(=O)[C@H](CC(=O)O)NC(=O)[C@H](CO)NC(=O)[C@H](CCCCN)NC(=O)[C@H](CO)NC(=O)[C@@H](NC(=O)[C@H](CS)NC(=O)[C@@H](NC(=O)[C@H](CCCCN)NC(=O)[C@H](CCCCN)NC(=O)[C@H](CS)NC(=O)[C@H](CCCNC(=N)N)NC(=O)[C@@H](NC(=O)[C@H](CCC(=O)O)NC(=O)CNC(=O)[C@@H](N)C(C)C)[C@@H](C)O)C(C)C)[C@@H](C)O)C(=O)N[C@H](C(=O)NCC(=O)N[C@@H](CO)C(=O)N[C@@H](CC(C)C)C(=O)N1CCC[C@H]1C(=O)N[C@@H](CCCNC(=N)N)C(=O)N1CCC[C@H]1C(=O)NCC(=O)N[C@@H](CCC(=O)O)C(=O)N[C@@H](CC(C)C)C(=O)N[C@@H](CO)C(=O)N[C@@H](CC(N)=O)C(=O)N[C@@H](Cc1ccc(O)cc1)C(=O)N[C@@H](CC(=O)O)C(=O)N[C@@H](CS)C(=O)N[C@@H](Cc1ccc(O)cc1)C(=O)NCC(=O)N[C@@H](CCCCN)C(=O)N1CCC[C@H]1C(=O)N[C@H](C(=O)N[C@@H](CCC(=O)O)C(=O)N[C@H](C(=O)N[C@@H](CC(N)=O)C(=O)N[C@@H](CC(N)=O)C(=O)NCC(=O)N[C@@H](CC(C)C)C(=O)O)C(C)C)[C@@H](C)CC)C(C)C` [βL-D407P/F408G], on full-length gephyrin (25°C, averaged values, n = 4-9), the “binding stoichiometry with gephyrin (N), one-site binding model” value was 0.241±0.023. Further, on full-length gephyrin (setting [1]), the “Binding enthalpy ΔH, one-site model” value is “–13.8 ± 3.2 kcal/mol” and the “Binding entropy ΔS, one-site model” value was “–21.7 ± 11 cal/mol * K”.

For “TMD-βL-wt: β-loop of GlyRβ (N334-A455) fused at its C terminus to a single TM of syntaxin and extracellular Dendra2”, in the test with full-length gephyrin rC4, the Deff of extrasynaptic trajectories (sptPALM, rat spinal cord neurons), Q1/Q2/Q3; value: the median Q2 is 0.07 µm^2 · s^−1; the Deff of synaptic trajectories (sptPALM, rat spinal cord neurons), Q1/Q2/Q3; value: the median Q2 was 0.05 µm^2 · s^−1; the explored area of extrasynaptic trajectories (sptPALM, rat spinal cord neurons), Q1/Q2/Q3; value: the median Q2 was found to be 0.00163 µm^2; the explored area of synaptic trajectories (sptPALM, rat spinal cord neurons), Q1/Q2/Q3; value: the median Q2 was 0.00123 µm^2.
